## OPERA 2.9 data: intrinsic clearance values

Clint is human hepatic intrinsic clearance in µL/min per million cells; 0 means that no clearance was seen.

The entry for Cc1cccc(C)c1N [2,6-dimethylaniline] lists Clint 8.96 µL/min/10^6 cells. The entry for Cc1ccc(-c2nc3ccc(C)cn3c2CC(=O)N(C)C)cc1 [Zolpidem] lists Clint 3.271 µL/min/10^6 cells. For CCCCNC(=O)n1c(NC(=O)OC)nc2ccccc21 [Benomyl] the data give Clint 26 µL/min/10^6 cells. The entry for CC(C)(C)CC(C)(C)c1ccc(O)cc1 [4-(1,1,3,3-tetramethylbutyl)phenol] lists Clint 26.98 µL/min/10^6 cells. Listed for Cc1cc(C2CC2)nc(Nc2ccccc2)n1 [Cyprodinil]: Clint 37.77 µL/min/10^6 cells. For CCCSP(=O)(OCC)Oc1ccc(Br)cc1Cl (configuration not stated) [Profenofos] the data give Clint 141 µL/min/10^6 cells. For Cc1ccc([N+](=O)[O-])cc1C [1,2-dimethyl-4-nitrobenzene] the data give Clint 454 µL/min/10^6 cells.

The entry for Cc1cc(C(C)(C)c2ccc(O)c(C)c2)ccc1O [3,3'-dimethylbisphenol a] lists Clint 191 µL/min/10^6 cells. Listed for O=S1(=O)OC(c2cc(Br)c(O)c(Br)c2)(c2cc(Br)c(O)c(Br)c2)c2ccccc21 [Bromophenol blue]: Clint 0 µL/min/10^6 cells. COc1ccc(C)cc1N [P-cresidine] has Clint 19.53 µL/min/10^6 cells. Clc1nc(Cl)nc(Nc2ccccc2Cl)n1 [Anilazine] is reported with Clint 22.5 µL/min/10^6 cells. CCCCC(CC)COC(=O)c1ccccc1C(=O)O (configuration not stated) [Mehp] has Clint 0 µL/min/10^6 cells. The entry for Clc1ccc(C(c2ccc(Cl)cc2)C(Cl)(Cl)Cl)cc1 [p,p'-ddt] lists Clint 12.5 µL/min/10^6 cells. CCCCOCN(C(=O)CCl)c1c(CC)cccc1CC [Butachlor] is reported with Clint 100.8 µL/min/10^6 cells.

Clc1cc(Cl)c(-c2cc(Cl)c(Cl)cc2Cl)cc1Cl [Pcb153] has Clint 0 µL/min/10^6 cells. Listed for CC(c1ccc(O)cc1)c1ccc(O)cc1 [Bisphenol e]: Clint 119 µL/min/10^6 cells. CCCCCCOC(=O)c1ccccc1C(=O)OCCCCCC [Dihexyl phthalate] has Clint 27.7 µL/min/10^6 cells. The entry for CCCCOC(=O)c1ccccc1C(=O)O [Monobutyl phthalate] lists Clint 0.74 µL/min/10^6 cells. Listed for CCN(CC)c1nc(C)cc(OP(=S)(OC)OC)n1 [Pirimiphos-methyl]: Clint 49.7 µL/min/10^6 cells. Listed for Clc1ccc(-c2ccc(Cl)c(Cl)c2)cc1Cl [Pcb77]: Clint 0 µL/min/10^6 cells. The entry for O.[Br-].[Br-].c1cc[n+]2c(c1)-c1cccc[n+]1CC2 [Diquat dibromide monohydrate] lists Clint 0 µL/min/10^6 cells.

Cc1ccc(/N=C/N(C)/C=N/c2ccc(C)cc2C)c(C)c1 [Amitraz] has Clint 33.3 µL/min/10^6 cells. CCOP(=O)(OCC)Oc1ccc([N+](=O)[O-])cc1 [Paraoxon] is reported with Clint 0 µL/min/10^6 cells. Nc1ccc([N+](=O)[O-])cc1 [4-nitroaniline] is reported with Clint 23.6 µL/min/10^6 cells. C=CC=C [1,3-butadiene] is reported with Clint 4.733 µL/min/10^6 cells. The entry for Cc1cccc([N+](=O)[O-])c1C [1,2-dimethyl-3-nitrobenzene] lists Clint 523 µL/min/10^6 cells. The entry for Cn1cc(-c2ccccc2)c(=O)c(-c2cccc(C(F)(F)F)c2)c1 [Fluridone] lists Clint 5.594 µL/min/10^6 cells. The entry for Cl.Nc1ccccc1 [Aniline hydrochloride] lists Clint 4.41 µL/min/10^6 cells.

For CCC(C)=O [Methyl ethyl ketone] the data give Clint 10.07 µL/min/10^6 cells. Listed for CN1C(=O)C(O)N=C(c2ccccc2)c2cc(Cl)ccc21 (configuration not stated) [Temazepam]: Clint 2.336 µL/min/10^6 cells. Listed for CCCCOC(=O)c1ccccc1C(=O)OCc1ccccc1 [Butyl benzyl phthalate]: Clint 427 µL/min/10^6 cells. The entry for c1ccc(NNc2ccccc2)cc1 [1,2-diphenylhydrazine] lists Clint 19 µL/min/10^6 cells.

A selection of 5 entries from above:

Cc1cccc([N+](=O)[O-])c1C [1,2-dimethyl-3-nitrobenzene] has Clint 523 µL/min/10^6 cells.
CCOP(=O)(OCC)Oc1ccc([N+](=O)[O-])cc1 [Paraoxon] has Clint 0 µL/min/10^6 cells.
Cc1cccc(C)c1N [2,6-dimethylaniline] has Clint 8.96 µL/min/10^6 cells.
CCCCOC(=O)c1ccccc1C(=O)OCc1ccccc1 [Butyl benzyl phthalate] has Clint 427 µL/min/10^6 cells.
CCCCOCN(C(=O)CCl)c1c(CC)cccc1CC [Butachlor] has Clint 100.8 µL/min/10^6 cells.

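The OPERA project collected these measurements from public sources as training and test data for property models. The files give a single number for a compound and property, which may rest on several reports. Conditions of the individual experiments are not part of the data. The measured form (salt, isomer or mixture) is not always the one drawn. Some upstream entries may be estimates or bounds without being marked so.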

Source: data files of OPERA 2.9 (Mansouri et al.), github.com/kmansouri/OPERA.